{"source": "ChEMBL document CHEMBL5036301", "about": "“Heteroaryl ether analogues of an antileishmanial 7-substituted 2-nitroimidazooxazine lead afford attenuated hERG risk: In vitro and in vivo appraisal” (Eur J Med Chem, 2021)", "tested_on": "Leishmania donovani", "experiment": "Antileishmanial activity against Leishmania donovani amastigotes infected in BALB/C mouse assessed as reduction in parasite burden in liver tissue at 3.13 mg/kg, po administered once per day for 5 days relative to control", "type": "functional", "details": "120 h, read-out: INH"}
{"compound": "CC1(COc2ccc(OC(F)(F)F)cc2)CCn2cc([N+](=O)[O-])nc2O1", "note": "(stereo unspecified)", "values": [{"measurement": "inhibition in vivo at 3.13 mg/kg", "result": 25, "unit": "%"}]}
